Experiment [1] addresses hTLR7 (Homo sapiens, UniProt Q9NYK1). The experiment can be described thus: TLR7 reporter assay in HEK-Blue cells (SEAP, Quanti-Blue). The class given is cell-based. Particulars: read-out: TLR7 EC50, 24 hours incubation, SEAP absorbance at 620 nm.
Experiment [2] addresses hTLR8 (Homo sapiens, UniProt Q9NR97). The experiment can be described thus: TLR8 reporter assay in HEK-Blue cells (SEAP, Quanti-Blue). The class given is cell-based. Particulars: read-out: TLR8 EC50, 24 hours incubation, SEAP absorbance at 620 nm. In general terms: Reporter assays use an easily measured gene product as a stand-in for the process of interest.
Experiment [3] concerns Peripheral blood mononuclear cells (PBMC). The experiment can be described thus: TNFα secretion from PBMCs. Particulars: read-out: TNFα EC50; human PBMCs, 18 hours incubation, MILLIPLEX bead panel.

By UniProt entry, the sequences of proteins in these tests, tags left out. Residues count along the entry.
UniProt Q9NYK1, 27-1049 limits assumed: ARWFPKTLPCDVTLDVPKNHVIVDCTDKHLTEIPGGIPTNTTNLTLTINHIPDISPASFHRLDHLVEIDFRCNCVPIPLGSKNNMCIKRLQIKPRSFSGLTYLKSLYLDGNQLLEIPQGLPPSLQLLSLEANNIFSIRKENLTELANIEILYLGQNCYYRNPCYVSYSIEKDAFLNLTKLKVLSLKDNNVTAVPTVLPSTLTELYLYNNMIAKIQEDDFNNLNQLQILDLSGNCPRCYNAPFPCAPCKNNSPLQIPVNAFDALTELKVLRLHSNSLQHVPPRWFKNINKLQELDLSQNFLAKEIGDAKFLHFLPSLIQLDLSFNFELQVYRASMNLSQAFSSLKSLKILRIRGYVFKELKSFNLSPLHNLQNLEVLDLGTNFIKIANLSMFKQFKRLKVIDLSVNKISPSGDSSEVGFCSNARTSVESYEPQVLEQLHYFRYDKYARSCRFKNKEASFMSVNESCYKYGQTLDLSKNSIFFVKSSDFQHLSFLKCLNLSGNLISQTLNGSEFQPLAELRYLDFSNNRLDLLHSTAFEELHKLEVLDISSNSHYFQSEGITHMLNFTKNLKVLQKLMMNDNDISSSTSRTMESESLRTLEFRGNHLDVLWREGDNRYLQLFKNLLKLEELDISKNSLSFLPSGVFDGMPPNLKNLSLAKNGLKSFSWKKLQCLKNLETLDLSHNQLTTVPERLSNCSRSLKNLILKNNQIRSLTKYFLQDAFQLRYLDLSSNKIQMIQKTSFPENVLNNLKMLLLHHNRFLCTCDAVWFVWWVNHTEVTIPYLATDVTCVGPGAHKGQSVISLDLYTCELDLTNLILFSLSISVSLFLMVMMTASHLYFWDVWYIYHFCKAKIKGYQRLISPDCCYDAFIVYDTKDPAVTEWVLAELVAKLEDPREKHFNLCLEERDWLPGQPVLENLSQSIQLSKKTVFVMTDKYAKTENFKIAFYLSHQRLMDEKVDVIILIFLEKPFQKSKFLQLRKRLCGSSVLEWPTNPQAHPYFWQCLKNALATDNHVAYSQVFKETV
UniProt Q9NR97, 27-1041 limits assumed: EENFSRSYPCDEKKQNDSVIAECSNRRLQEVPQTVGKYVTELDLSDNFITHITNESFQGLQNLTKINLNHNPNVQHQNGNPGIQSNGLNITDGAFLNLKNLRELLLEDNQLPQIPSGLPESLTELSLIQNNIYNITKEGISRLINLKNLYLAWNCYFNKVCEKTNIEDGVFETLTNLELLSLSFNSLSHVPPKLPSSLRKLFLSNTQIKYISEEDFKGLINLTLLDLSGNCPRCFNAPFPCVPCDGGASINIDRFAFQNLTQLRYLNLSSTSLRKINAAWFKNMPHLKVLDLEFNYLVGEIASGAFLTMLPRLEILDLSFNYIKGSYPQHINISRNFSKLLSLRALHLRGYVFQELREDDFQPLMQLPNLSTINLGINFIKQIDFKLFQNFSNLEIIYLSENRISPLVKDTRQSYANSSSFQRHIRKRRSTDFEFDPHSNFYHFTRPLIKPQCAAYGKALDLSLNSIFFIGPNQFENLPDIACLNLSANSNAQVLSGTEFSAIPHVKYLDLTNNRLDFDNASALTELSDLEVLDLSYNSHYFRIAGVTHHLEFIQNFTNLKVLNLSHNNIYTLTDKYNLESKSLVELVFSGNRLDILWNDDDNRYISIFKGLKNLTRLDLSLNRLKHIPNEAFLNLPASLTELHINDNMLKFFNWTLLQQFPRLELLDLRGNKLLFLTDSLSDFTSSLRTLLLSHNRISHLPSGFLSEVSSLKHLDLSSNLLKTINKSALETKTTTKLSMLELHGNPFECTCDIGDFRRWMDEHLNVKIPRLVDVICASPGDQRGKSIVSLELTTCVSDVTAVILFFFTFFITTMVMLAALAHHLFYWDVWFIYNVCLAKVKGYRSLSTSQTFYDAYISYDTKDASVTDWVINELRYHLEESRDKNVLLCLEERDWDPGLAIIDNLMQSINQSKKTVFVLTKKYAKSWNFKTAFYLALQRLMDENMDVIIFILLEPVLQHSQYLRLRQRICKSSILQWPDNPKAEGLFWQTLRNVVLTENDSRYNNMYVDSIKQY

Consider `CCOCc1nc2c(N)nc3ccccc3c2n1CC(C)(C)OCCN`, for which the EC50 in experiment [1] and in experiment [2] was 0.01 to 0.1 µM throughout.
As to `CCOCc1nc2c(N)nc3ccccc3c2n1CC(C)(C)OCCNC(=O)C(C)(C)N`, the EC50 was over 10 µM in experiment [3], 0.01 to 0.1 µM in experiment [1] and 1 to 10 µM in experiment [2].
On to `CCCCc1nc2c(N)nc3ccccc3c2n1CCN1CCNCC1`, for which the EC50 in experiment [3] is 1 to 10 µM; in experiment [1], 0.1 to 1 µM; in experiment [2] it was over 10 µM.
For `CCCCNc1nc(N)c2[nH]c(=O)n(Cc3ccc(C(=O)NCC(=O)O)cc3)c2n1` the same measures were 1 to 10 µM, 1 to 10 µM and over 10 µM.
For `CCCCc1nc2c(N)nc3ccccc3c2n1CCCCN`, in experiment [3], the EC50 lay within 1 to 10 µM.

The term EC50 denotes the midpoint of the concentration-response curve.

Values taken from patent publication US20260193250A1, “TOLL-LIKE RECEPTOR 7 AGONISTS AS IMMUNE-STIMULATORS TO ELICIT THE INNATE ANTITUMOR IMMUNITY” (Merck Patent GmbH, priority 2022, published 2026).
